These results are taken from ChEMBL document CHEMBL1136616, “Carbonic anhydrase inhibitors: SAR and X-ray crystallographic study for the interaction of sugar sulfamates/sulfamides with isozymes I, II and IV” (Bioorg Med Chem Lett, 2003).

The target in this test is Carbonic anhydrase 2 (Homo sapiens, UniProt P00918).

With `NS(=O)(=O)O` [SULFAMATE], the Ki (in general, a dissociation constant, usually derived from enzyme kinetics or from competition with a known ligand) came to 97 µM.
